Here are results for 1 molecule from patent US20090075888A1, “Cardiovascular and Brain Cell Therapy Using Intracellular Ryanodine Receptor Modulation by the Estrogen Receptor Beta” (University of North Texas Health Science Center at Fort …, priority 2007, published 2009).

Chains of the proteins cited; added tags and fusions are not shown.
UniProt E9Q401, whole entry: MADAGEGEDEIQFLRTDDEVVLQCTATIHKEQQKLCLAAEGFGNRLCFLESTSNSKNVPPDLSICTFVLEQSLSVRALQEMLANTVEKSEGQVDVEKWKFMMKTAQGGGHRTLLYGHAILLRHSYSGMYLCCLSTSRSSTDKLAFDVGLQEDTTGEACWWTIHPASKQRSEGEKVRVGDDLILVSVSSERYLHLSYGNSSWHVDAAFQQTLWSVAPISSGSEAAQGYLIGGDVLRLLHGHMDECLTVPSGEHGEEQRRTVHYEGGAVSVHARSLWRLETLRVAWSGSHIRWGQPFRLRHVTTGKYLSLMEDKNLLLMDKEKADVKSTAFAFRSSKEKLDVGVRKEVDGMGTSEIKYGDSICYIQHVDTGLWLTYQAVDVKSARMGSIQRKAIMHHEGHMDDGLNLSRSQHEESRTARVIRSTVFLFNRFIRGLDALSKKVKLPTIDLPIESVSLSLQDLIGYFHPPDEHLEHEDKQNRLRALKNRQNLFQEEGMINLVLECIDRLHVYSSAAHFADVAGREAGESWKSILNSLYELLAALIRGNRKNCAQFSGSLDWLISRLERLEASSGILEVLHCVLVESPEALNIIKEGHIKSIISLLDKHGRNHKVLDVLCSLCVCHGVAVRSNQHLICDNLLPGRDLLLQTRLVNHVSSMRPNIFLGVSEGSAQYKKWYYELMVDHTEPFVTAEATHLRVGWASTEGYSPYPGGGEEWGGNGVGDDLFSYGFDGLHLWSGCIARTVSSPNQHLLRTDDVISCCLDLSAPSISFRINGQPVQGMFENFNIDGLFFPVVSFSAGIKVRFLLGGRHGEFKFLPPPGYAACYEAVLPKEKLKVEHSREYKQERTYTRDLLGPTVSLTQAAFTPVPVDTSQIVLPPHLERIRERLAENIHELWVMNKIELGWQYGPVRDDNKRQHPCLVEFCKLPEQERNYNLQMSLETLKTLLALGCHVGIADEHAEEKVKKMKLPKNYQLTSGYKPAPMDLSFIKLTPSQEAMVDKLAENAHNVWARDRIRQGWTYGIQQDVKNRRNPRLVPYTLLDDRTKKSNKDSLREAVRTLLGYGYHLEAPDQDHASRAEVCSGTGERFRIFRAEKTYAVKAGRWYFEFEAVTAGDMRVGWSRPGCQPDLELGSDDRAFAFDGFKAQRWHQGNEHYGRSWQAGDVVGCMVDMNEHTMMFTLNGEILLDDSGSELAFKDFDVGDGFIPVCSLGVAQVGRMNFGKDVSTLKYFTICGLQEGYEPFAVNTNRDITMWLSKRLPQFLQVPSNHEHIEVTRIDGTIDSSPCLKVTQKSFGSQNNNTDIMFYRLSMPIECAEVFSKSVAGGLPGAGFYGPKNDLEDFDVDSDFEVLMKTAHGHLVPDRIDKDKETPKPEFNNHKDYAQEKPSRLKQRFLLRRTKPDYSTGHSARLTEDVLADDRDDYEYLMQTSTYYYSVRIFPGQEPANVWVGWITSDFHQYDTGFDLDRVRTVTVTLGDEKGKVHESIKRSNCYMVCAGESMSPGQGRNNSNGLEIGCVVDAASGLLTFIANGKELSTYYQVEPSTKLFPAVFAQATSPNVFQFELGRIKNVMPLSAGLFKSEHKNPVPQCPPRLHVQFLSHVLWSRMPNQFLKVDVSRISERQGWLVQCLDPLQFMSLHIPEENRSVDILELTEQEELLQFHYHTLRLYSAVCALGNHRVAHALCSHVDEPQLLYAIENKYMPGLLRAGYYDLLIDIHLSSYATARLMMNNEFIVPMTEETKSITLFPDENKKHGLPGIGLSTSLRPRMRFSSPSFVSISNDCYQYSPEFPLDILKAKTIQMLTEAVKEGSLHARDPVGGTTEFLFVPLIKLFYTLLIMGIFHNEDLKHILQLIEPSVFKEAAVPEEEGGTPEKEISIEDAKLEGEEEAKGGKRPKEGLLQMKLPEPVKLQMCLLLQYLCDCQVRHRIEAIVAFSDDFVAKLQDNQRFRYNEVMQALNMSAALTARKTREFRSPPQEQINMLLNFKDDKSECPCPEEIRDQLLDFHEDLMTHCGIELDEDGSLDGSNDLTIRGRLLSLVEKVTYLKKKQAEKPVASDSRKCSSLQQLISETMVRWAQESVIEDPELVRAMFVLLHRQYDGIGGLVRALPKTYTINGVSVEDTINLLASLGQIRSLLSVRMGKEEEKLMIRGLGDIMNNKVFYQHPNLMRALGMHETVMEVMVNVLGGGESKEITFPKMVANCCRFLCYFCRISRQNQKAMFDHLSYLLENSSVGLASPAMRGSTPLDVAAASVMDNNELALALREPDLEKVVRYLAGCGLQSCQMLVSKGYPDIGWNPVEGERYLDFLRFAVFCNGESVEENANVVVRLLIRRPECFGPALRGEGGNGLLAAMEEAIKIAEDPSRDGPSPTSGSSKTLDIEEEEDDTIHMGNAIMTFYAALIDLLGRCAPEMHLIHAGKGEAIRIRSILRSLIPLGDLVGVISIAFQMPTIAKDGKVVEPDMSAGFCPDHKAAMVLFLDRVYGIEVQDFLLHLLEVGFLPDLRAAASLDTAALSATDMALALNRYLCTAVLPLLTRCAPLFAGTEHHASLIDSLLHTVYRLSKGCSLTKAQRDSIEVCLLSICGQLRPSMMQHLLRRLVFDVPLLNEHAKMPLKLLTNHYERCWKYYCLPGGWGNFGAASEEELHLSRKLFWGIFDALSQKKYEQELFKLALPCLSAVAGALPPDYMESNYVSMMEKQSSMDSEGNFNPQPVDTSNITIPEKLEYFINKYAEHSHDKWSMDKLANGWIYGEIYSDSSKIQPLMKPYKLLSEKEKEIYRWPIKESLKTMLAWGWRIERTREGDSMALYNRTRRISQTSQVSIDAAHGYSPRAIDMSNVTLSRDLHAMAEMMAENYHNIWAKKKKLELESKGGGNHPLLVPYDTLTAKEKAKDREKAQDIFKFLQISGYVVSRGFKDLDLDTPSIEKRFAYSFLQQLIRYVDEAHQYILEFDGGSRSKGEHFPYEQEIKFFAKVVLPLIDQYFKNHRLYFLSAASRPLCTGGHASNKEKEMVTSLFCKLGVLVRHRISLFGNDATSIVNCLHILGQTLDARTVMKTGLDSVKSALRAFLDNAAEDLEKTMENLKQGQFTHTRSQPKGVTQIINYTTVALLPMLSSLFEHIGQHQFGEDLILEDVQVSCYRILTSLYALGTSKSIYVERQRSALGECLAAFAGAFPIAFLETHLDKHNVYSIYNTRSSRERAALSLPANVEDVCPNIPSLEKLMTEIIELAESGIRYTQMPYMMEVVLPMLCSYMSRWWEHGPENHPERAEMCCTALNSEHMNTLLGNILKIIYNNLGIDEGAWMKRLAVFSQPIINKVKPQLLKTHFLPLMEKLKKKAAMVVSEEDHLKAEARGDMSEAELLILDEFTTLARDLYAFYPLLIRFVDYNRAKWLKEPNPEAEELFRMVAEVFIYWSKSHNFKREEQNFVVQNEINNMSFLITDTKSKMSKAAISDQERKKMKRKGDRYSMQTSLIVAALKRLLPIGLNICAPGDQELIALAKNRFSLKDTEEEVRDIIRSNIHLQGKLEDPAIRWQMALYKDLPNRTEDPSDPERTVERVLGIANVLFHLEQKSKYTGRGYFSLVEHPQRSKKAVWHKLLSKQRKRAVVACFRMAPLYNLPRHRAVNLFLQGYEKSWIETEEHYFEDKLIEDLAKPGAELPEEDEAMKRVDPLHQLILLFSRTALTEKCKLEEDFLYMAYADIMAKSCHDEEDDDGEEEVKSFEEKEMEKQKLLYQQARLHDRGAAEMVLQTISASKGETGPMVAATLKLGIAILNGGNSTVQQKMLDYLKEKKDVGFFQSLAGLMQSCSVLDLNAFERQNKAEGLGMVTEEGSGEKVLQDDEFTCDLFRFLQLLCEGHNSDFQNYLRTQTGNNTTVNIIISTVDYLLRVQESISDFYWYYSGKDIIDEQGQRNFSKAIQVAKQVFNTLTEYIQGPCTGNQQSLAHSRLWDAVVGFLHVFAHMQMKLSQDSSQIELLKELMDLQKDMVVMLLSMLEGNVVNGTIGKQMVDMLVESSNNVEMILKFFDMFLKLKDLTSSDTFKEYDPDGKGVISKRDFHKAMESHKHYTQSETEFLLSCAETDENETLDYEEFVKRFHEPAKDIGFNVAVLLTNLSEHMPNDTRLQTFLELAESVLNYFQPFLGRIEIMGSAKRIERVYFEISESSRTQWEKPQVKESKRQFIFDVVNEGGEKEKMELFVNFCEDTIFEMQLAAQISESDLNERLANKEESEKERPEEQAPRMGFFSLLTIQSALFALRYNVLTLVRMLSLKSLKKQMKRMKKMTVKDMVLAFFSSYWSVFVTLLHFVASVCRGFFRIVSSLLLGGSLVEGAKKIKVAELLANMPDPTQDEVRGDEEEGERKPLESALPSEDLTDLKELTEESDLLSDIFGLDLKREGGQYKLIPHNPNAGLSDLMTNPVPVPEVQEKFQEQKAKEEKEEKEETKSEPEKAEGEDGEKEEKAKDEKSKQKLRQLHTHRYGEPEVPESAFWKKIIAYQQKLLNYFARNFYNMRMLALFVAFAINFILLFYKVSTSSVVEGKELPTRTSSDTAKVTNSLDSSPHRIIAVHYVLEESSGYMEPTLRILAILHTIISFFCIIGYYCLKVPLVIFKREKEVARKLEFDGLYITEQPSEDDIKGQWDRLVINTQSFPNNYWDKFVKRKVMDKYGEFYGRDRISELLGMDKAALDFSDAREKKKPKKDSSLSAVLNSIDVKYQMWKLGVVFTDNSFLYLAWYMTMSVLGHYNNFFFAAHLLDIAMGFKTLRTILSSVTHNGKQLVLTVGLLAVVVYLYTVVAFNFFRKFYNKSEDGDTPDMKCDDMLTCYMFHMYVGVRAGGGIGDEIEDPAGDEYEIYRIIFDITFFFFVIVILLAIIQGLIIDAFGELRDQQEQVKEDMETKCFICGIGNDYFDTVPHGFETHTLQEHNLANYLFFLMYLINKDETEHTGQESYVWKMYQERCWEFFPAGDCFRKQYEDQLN

For this assay, the target named is mouse brain RyR2 (Mus musculus, UniProt E9Q401). Description: Single-channel current recordings of RyR2 incorporated in artificial lipid bilayer. The following applies: E2-liganded ERβ, approximately.

B1: E2-liganded ERβ: ERβ protein bound to its ligand 17β-estradiol (E2) (protein, UniProt Q92731 1-530, looked up)
Estrogen receptor beta: MDIKNSPSSLNSPSSYNCSQSILPLEHGSIYIPSSYVDSHHEYPAMTFYSPAVMNYSIPSNVTNLEGGPGRQTTSPNVLWPTPGHLSPLVVHRQLSHLYAEPQKSPWCEARSLEHTLPVNRETLKRKVSGNRCASPVTGPGSKRDAHFCAVCSDYASGYHYGVWSCEGCKAFFKRSIQGHNDYICPATNQCTIDKNRRKSCQACRLRKCYEVGMVKCGSRRERCGYRLVRRQRSADEQLHCAGKAKRSGGHAPRVRELLLDALSPEQLVLTLLEAEPPHVLISRPSAPFTEASMMMSLTKLADKELVHMISWAKKIPGFVELSLFDQVRLLESCWMEVLMMGLMWRSIDHPGKLIFAPDLVLDRDEGKCVEGILEIFDMLLATTSRFRELKLQHKEYLCVKAMILLNSSMYPLVTATQDADSSRKLAHLLNAVTDALVWVIAKSGISSQQQSMRLANLLMLLSHVRHASNKGMEHLLNMKCKNVVPVYDLLLEMLNAHVLRGCKSSITGSECSPAEDSKSKEGSQNPQSQ
modifications: bound to 17β-estradiol
As to B1, the “block of RyR (decrease)” value is recorded as 5-10.
